For this data set the following is noted: rhesus monkey, in vivo.

For the substance trimethoprim sulfamethoxazole [TMP-SMX], the “Toxicity of dosing as used” value is “non-toxic”.

The values are drawn from publication PMC4079689, “HIV Treatments Reduce Malaria Liver Stage Burden in a Non-Human Primate Model of Malaria Infection at Clinically Relevant Concentrations In Vivo” (PLoS ONE, 2014).
